# Where two headings read alike, the source gives them in different places.
# Tests used:
# [1] = cited from earlier work; for Organ Weight: Body Weight / Organ Weight: Salivary Gland / Organ Weight: Thymus: Main Phase
# [2] = system: HER2 positive cell HCC1954; experiment: Cytotoxicity of α-ADCs in HER2 positive cell HCC1954 (CellTiter-Glo); type: cell-based, Human
# Experimental: (§1) Cell viability is tested using CellTiter-Glo® Luminescent Kit (Promega, Cat.# G7573) read by a Biotek Cytation3 Imaging reader.
# (§2) Study design was shown as in Table 21 and Table 22. […] Cell vitality formula: Viability = (RLU (X) - RLU (Puro))/(RLU (Control) - RLU (Puro)) ^∗ 100%. A logistic model (4-parameter) will be used for data processing, IC50 calculation and curve fitting by Prism 6 software.
# [3] = system: HCC1954 human breast cancer xenograft; experiment: In vivo anti-tumor efficacy, HCC1954 human breast cancer xenograft model; parameters: species or system female BALB/c nude mice
# [4] = system: NCI-N87 human gastric cancer xenograft; experiment: In vivo anti-tumor efficacy, NCI-N87 human gastric cancer xenograft model; parameters: species or system female BALB/c nude mice
# Excerpt: HCC1954 human breast cancer xenograft model (HCC1954 model) and NCI-N87 human gastric cancer xenograft model (NCI-N87 model) in female BALB/c nude mice are provided by ATCC. Cynomolgus monkeys are provided by GuangZhou XiangGuan, Ltd..
# Objective: The objective of this study was to evaluate the in vivo anti-tumor efficacy of α-ADCs after single dose IV administration in the subcutaneous HCC1954 human breast cancer xenograft model (HCC1954 model) and NCI-N87 human gastric cancer xenograft model (NCI-N87 model) in female BALB/c nude mice.
# [5] = system: HER2 negative cell MDA-MB-468; experiment: Cytotoxicity of α-ADCs in HER2 negative cell MDA-MB-468 (CellTiter-Glo); type: cell-based
# Experimental: as §1, §2
# [6] = Main Phase (n=3 / gender), Female, 10 mg/kg (HNSTD)
# [7] = Main Phase (n=3 / gender), Male, 10 mg/kg (HNSTD)
# [8] = Recovery phase (n=2 / gender), Female, 10 mg/kg (HNSTD)
# [9] = Recovery phase (n=2 / gender), Male, 10 mg/kg (HNSTD)
substance,measurement,setting,value
Kadcyla,"Kidney: Infiltrate, Mononuclear Cell",[1]; [6],⅓
same,Liver: Increased Sinusoidal Leukocytes,[1]; [6],⅓
same,"Lung: Infiltrate, Mononuclear Cell, Interstitium",[1]; [6],⅓
same,Sciatic Nerve: Axonal Degeneration,[1]; [6],⅓
same,"Spleen: Mitoses/Arrested Metaphase, Reticuloendothelial Cells",[1]; [6],⅓
same,"Kidney: Infiltrate, Mononuclear Cell",[1]; [7],⅔
same,"Kidney: Mitoses/Arrested Metaphase, Tubular Epithelial Cells",[1]; [7],⅓
same,"Lung: Infiltrate, Mononuclear Cell, Interstitium",[1]; [7],⅓
same,Sciatic Nerve: Axonal Degeneration,[1]; [7],⅔
same,Thymus: Lymphoid Depletion,[1]; [7],⅔
same,Organ Weight: Body Weight,"[1]; Female, 10 mg/kg (HNSTD)",-12.5%
same,Organ Weight: Salivary Gland,"[1]; Female, 10 mg/kg (HNSTD)",-1.9%
same,Organ Weight: Thymus,"[1]; Female, 10 mg/kg (HNSTD)",-63.7%
same,Organ Weight: Body Weight,"[1]; Male, 10 mg/kg (HNSTD)",-7.1%
same,Organ Weight: Salivary Gland,"[1]; Male, 10 mg/kg (HNSTD)",-24.6%
same,Organ Weight: Thymus,"[1]; Male, 10 mg/kg (HNSTD)",-31.2%
same,Sciatic Nerve: Axonal Degeneration,[1]; [8],½
same,"Spinal Cord: Axonal Degeneration, Dorsal Funiculus",[1]; [8],½
same,Sciatic Nerve: Axonal Degeneration,[1]; [9],½
same,"Spinal Cord: Axonal Degeneration, Dorsal Funiculus",[1]; [9],½
same,toxicity dose,[1]; comparison value for Kadcyla,10 mg/kg
same,effect on proliferation of HER2-positive cells compared with comparator,"[2]; HCC1954, 72 h",slightly stronger effect than α-ADCs
same,IC50,"[2]; HER2 positive HCC1954, 72 h, CellTiter-Glo",0.0947 nM
same,T/C,[3]; 2.5 mg/kg single dose IV,6.47%
same,mean tumor size,[3]; 2.5 mg/kg single dose IV,144 mm^3
same,T/C,[3]; 5 mg/kg single dose IV,1.57%
same,mean tumor size,[3]; 5 mg/kg single dose IV,35 mm^3
same,T/C,[4]; 5 mg/kg single dose IV,41.61%
same,TGI,[4]; 5 mg/kg single dose IV,67.93%
same,mean tumor size,[4]; 5 mg/kg single dose IV,579 mm^3
same,T/C,[4]; 15 mg/kg single dose IV,4.66%
same,TGI,[4]; 15 mg/kg single dose IV,110.87%
same,mean tumor size,[4]; 15 mg/kg single dose IV,65 mm^3
same,IC50,"[5]; HER2 negative MDA-MB-468, 72 h, CellTiter-Glo",10.6 nM
same,inhibitory effect in HER2-negative cells,"[5]; MDA-MB-468, 72 h",off-target cytotoxicity at high concentration

# Reference: patent publication US20230338568A1, “NOVEL ISOMERIC COMPOUNDS COMPRISING A RING-OPENED THIOSUCCINIMIDE GROUP, AN OLIGOPEPTIDE FRAGMENT AND A CHIRAL MOIETY” (priority 2020, published 2023)
